For eleven compounds, Ki results are on record in patent publication US9611251B2, “Substituted piperidine compounds and their use as orexin receptor modulators” (Janssen Pharmaceutica NV, priority 2013, dated 2017).

Protein sequences, listed by entry. Tags and fused reporters are not part of them.
UniProt O43614, whole entry: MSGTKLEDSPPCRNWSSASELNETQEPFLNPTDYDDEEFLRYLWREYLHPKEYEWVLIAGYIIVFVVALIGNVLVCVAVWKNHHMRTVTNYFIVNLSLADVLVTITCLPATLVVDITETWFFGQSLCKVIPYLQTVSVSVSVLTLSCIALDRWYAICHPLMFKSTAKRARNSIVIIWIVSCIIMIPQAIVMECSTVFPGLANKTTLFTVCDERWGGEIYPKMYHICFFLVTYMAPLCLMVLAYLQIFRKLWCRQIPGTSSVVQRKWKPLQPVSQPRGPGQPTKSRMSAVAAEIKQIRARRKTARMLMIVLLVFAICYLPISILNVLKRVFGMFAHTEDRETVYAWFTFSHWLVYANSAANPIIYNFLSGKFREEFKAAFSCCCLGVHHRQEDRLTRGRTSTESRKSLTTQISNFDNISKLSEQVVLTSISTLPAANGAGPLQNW

One test concerns the target human orexin 1 receptor (Homo sapiens, UniProt O43613). The test can be described thus: Human orexin 1 receptor radioligand binding. To be noted: averages of 2-20 runs, read-out: hOX1 Ki. The procedure: The in vitro affinity of the compounds of the invention for the rat/human orexin 1 and human orexin 2 receptors was determined by competitive radioligand binding using [^3H](1-(5-(2-fluoro-phenyl)-2-methyl-thiazol-4-yl)-1-((S)-2-(5-phenyl-(1,3,4)oxadiazol-2-ylmethyl)-pyrrolidin-1-yl)-methanone) (Langmead et al., 2004) and [^3H]EMPA (n-ethyl-2[96-methoxypyridin-3-yl)-(toluene-2-sulfonyl)-amino]-N-pyridin-3-ylmethyl acetamide), respectively (Langmead et al., 2004, British Journal of Pharmacology 141:340-346; Malherbe et al., 2004, British Journal of Pharmacology 156:1326-41).
(§1) Data are analyzed using pc-Sandy macro and graphed on Graphpad Prism 5. For analysis, each concentration point is averaged from triplicate values and the averaged values are plotted on Graphpad Prism. The IC50 was determined by applying the following equation (GraphPad Prism 5.0, SanDiego) for one site competition where X=log (concentration) and Y=specific binding. Top denotes the total [^3H]-(1-(5-(2-fluoro-phenyl)-2-methyl-thiazol-4-yl)-1-((S)-2-(5-phenyl-(1,3,4)oxadiazol-2-ylmethyl)-pyrrolidin-1-yl)-methanone) binding, bottom denotes the nonspecific [^3H]-(1-(5-(2-fluoro-phenyl)-2-methyl-thiazol-4-yl)-1-((S)-2-(5-phenyl-(1,3,4)oxadiazol-2-ylmethyl)-pyrrolidin-1-yl)-methanone) binding. Graphpad Prism calculates Ki value from IC50 and the pre-determined Kd values for [^3H]-(1-(5-(2-fluoro-phenyl)-2-methyl-thiazol-4-yl)-1-((S)-2-(5-phenyl-(1,3,4)oxadiazol-2-ylmethyl)-pyrrolidin-1-yl)-methanone) and [3H]-EMPA. The Ki for each compound is then uploaded into 3DX. Each run comprises individual compounds in triplicate.
(§2) Rat and Human Orexin 1 Receptor Radioligand Binding Studies
Human Embryonic Kidney 293 cells (HEK293) stably expressing rat orexin 1 receptor (Genebank accession number NM_001525) or Chinese ovary cells (CHO) stably expressing human orexin 1 receptor (Genebank accession number NM_001526) were grown to confluency in DMEM (Hyclone, cat #SH30022), 10% FBS, 1×Pen/Strep, 1× sodium pyruvate, 10 mM HEPES, 600 μg/mL G418 and DMEM/F12 (Gibco, Cat #11039), 10% FBS, 1×Pen/Strep, 600 μg/mL G418 media, respectively on 150 cm^2 tissue culture plates, washed with 5 mM EDTA in PBS (HyClone Dulbecco's Phosphate Buffered Saline 1× with Calcium and Magnesium, Cat #SH30264.01, hereafter referred to simply as PBS) and scraped into 50 ml tubes. After centrifugation (2K×G, 5 min at 4° C.), the supernatant was aspirated and the pellets frozen and stored at −80° C. Cells were resuspended in PBS in the presence of 1 tablet of protease inhibitor cocktail (Roche, Cat. #11836145001) per 50 mL. Each cell pellet from a 15 cm plate was resuspended in 10 mL, stored on ice, and homogenized for 45 sec prior to addition to the reactions. Competition binding experiments in 96 well polypropylene plates were performed using [^3H]-(1-(5-(2-fluoro-phenyl)-2-methyl-thiazol-4-yl)-1-((S)-2-(5-phenyl-(1,3,4)oxadiazol-2-ylmethyl)-pyrrolidin-1-yl)-methanone) (Moraveck Corporation, specific activity=35.3 Ci/mmol), diluted to a 10 nM concentration in PBS (4 nM final). Compounds were solubilized in 100% DMSO (Acros Organics, Cat. #61042-1000) and tested over a range of 7 concentrations (from 0.1 nM to 10 μM). The final concentration of DMSO in the reactions is equal to or less than 0.1%. Total and nonspecific binding was determined in the absence and presence of 10 μM almorexant. The total volume of each reaction is 200 μL (20 μL of diluted compounds, 80 μL of [^3H]-(1-(5-(2-fluoro-phenyl)-2-methyl-thiazol-4-yl)-1-((S)-2-(5-phenyl-(1,3,4)oxadiazol-2-ylmethyl)-pyrrolidin-1-yl)-methanone) diluted in PBS and 100 μL of the cell suspension). Reactions were run for 60 min at room temperature and terminated by filtration through GF/C filter plates (PerkinElmer, Cat. #6005174) presoaked in 0.3% polyethylenimine using the cell harvester (PerkinElmer Filtermate). The plates were washed 3 times by aspirating 30 ml PBS through the plates.

The next test deals with rat orexin 1 receptor (Rattus norvegicus, UniProt P56718). The test can be described thus: Rat orexin 1 receptor radioligand binding. To be noted: averages of 2-20 runs, read-out: rOX1 Ki. The procedure: as §1, §2
After centrifugation (2K×G, 5 min at 4° C.), the supernatant was aspirated and the pellets frozen and stored at −80° C. […] Each cell pellet from a 15 cm plate was resuspended in 10 mL, stored on ice, and homogenized for 45 sec prior to addition to the reactions. Competition binding experiments in 96 well polypropylene plates were performed using [^3H]-(1-(5-(2-fluoro-phenyl)-2-methyl-thiazol-4-yl)-1-((S)-2-(5-phenyl-(1,3,4)oxadiazol-2-ylmethyl)-pyrrolidin-1-yl)-methanone) (Moraveck Corporation, specific activity=35.3 Ci/mmol), diluted to a 10 nM concentration in PBS (4 nM final). […] The final concentration of DMSO in the reactions is equal to or less than 0.1%. Total and nonspecific binding was determined in the absence and presence of 10 μM almorexant. The total volume of each reaction is 200 μL (20 μL of diluted compounds, 80 μL of [^3H]-(1-(5-(2-fluoro-phenyl)-2-methyl-thiazol-4-yl)-1-((S)-2-(5-phenyl-(1,3,4)oxadiazol-2-ylmethyl)-pyrrolidin-1-yl)-methanone) diluted in PBS and 100 μL of the cell suspension). […] The plates were washed 3 times by aspirating 30 ml PBS through the plates. Plates were dried in 55° C. oven for 60 min, scintillation fluid was added, and the radioactivity was counted on a Topcount (Packard).

For another test, the target named is human orexin 2 receptor (Homo sapiens (Human), UniProt O43614). Kind of test: Human orexin 2 receptor radioligand binding ([3H]-EMPA). To be noted: averages of 2-20 runs, read-out: hOX2 Ki. The method, then: as §1
Human Orexin 2 Receptor Radioligand Binding Studies
HEK293 stably expressing human orexin 2 receptor (Genebank accession number NM_001526) were grown to confluency in DMEM (Hyclone, cat #SH30022), 10% FBS, 1×Pen/Strep, 1× NaPyruvate, 10 mM HEPES, 600 ug/ml G418 media on 150 cm^2 tissue culture plates, washed with 5 mM EDTA in PBS (HyClone Dulbecco's Phosphate Buffered Saline 1× with Calcium and Magnesium, Cat #SH30264.01, hereafter referred to simply as PBS) and scraped into 50 ml tubes. After centrifugation (2K×G, 5 min at 4° C.), the supernatant was aspirated and the pellets frozen and stored at −80° C. […] Each cell pellet from a 15 cm plate was resuspended in 10 mL, stored on ice, and homogenized for 45 sec just prior to addition to the reactions. Competition binding experiments in 96 well polypropylene plates were performed using [^3H]-EMPA (Moraveck Corporation, specific activity=29.6 Ci/mmol), diluted to a 5 nM concentration in PBS (2 nM final concentration). […] The final concentration of DMSO in the reactions is equal to or less than 0.1%. Total and nonspecific binding was determined in the absence and presence of 10 μM almorexant. The total volume of each reaction is 200 μL (20 μL of diluted compounds, 80 μL of [^3H]-EMPA diluted in PBS and 100 μL of the cell suspension). […] The plates were washed 3 times by aspirating 30 ml PBS through the plates. Plates were dried in 55° C. oven for 60 min, scintillation fluid was added, and the radioactivity was counted on a Topcount (Packard).

For the compound `Cc1ccc(C(=O)N2CCC[C@@H](Nc3cnc(Cl)cn3)[C@@H]2C)c(-n2nccn2)c1` (relative stereo) [Example 180, ((2S*,3R*)-3-((5-chloropyrazin-2-yl)amino)-2-methylpiperidin-1-yl)(4-methyl-2-(2H-1,2,3-triazol-2-yl)phenyl)methanone], the Ki was 27 nM on human orexin 1 receptor and 31 nM at rat orexin 1 receptor.
With `Cc1cnc(C(=O)N2CCC[C@@H](Nc3cnc(Cl)cn3)[C@@H]2C)c(-n2nccn2)c1` (relative stereo) [Example 182, ((2S*,3R*)-3-((5-chloropyrazin-2-yl)amino)-2-methylpiperidin-1-yl)(5-methyl-3-(2H-1,2,3-triazol-2-yl)pyridin-2-yl)methanone], the Ki on human orexin 2 receptor stood at 10000 nM.
As to `Cc1cnc(C(=O)N2CCC[C@@H](Nc3ncc(Cl)cn3)[C@@H]2C)c(-n2nccn2)c1` (relative stereo) [Example 183, ((2S*,3R*)-3-((5-chloropyrimidin-2-yl)amino)-2-methylpiperidin-1-yl)(5-methyl-3-(2H-1,2,3-triazol-2-yl)pyridin-2-yl)methanone], the Ki on human orexin 2 receptor was 8900 nM.
On the same count and under the same terms, as for `Cc1noc(-c2cc(F)ccc2C(=O)N2CCC[C@@H](Nc3ccc(C(F)(F)F)cn3)[C@@H]2C)n1` (relative stereo) [Example 190, (4-fluoro-2-(3-methyl-1,2,4-oxadiazol-5-yl)phenyl)((2S*,3R*)-2-methyl-3-((5-(trifluoromethyl)pyridin-2-yl)amino)piperidin-1-yl)methanone], the figure is 1200 nM.
In the case of `CCOc1ccc(C)nc1C(=O)N1CCC[C@@H](Nc2ccc(C(F)(F)F)cn2)[C@@H]1C` (relative stereo) [Example 194, (3-ethoxy-6-methylpyridin-2-yl)((2S*,3R*)-2-methyl-3-((5-(trifluoromethyl)pyridin-2-yl)amino)piperidin-1-yl)methanone], the Ki at human orexin 1 receptor and on rat orexin 1 receptor was 24 nM each time.
Regarding `Cc1cnc(C(=O)N2CCC[C@@H](Nc3nnc(C(F)(F)F)s3)[C@@H]2C)c(-n2nccn2)c1` (relative stereo) [Example 195, ((2S*,3R*)-2-methyl-3-((5-(trifluoromethyl)-1,3,4-thiadiazol-2-yl)amino)piperidin-1-yl)(5-methyl-3-(2H-1,2,3-triazol-2-yl)pyridin-2-yl)methanone], the Ki on human orexin 2 receptor stood at 10000 nM.
Consider `C[C@H]1[C@H](Nc2ncc(C(F)(F)F)cn2)CCCN1C(=O)c1cccc(F)c1-c1ncccn1` (relative stereo) [Example 200, (3-fluoro-2-(pyrimidin-2-yl)phenyl)((2S*,3R*)-2-methyl-3-((5-(trifluoromethyl)pyrimidin-2-yl)amino)piperidin-1-yl)methanone], for which the figures for the Ki on human orexin 1 receptor and on rat orexin 1 receptor were 27 nM and 35 nM, respectively.
In the same order, the values of `C[C@H]1[C@H](Nc2ncc(C(F)(F)F)cn2)CCCN1C(=O)c1ccc(F)cc1-c1ncccn1` (relative stereo) [Example 202, (4-fluoro-2-(pyrimidin-2-yl)phenyl)((2S*,3R*)-2-methyl-3-((5-(trifluoromethyl)pyrimidin-2-yl)amino)piperidin-1-yl)methanone] are 65 nM and 35 nM.
In the same order, the values of `C[C@H]1[C@H](Nc2ccc(C(F)(F)F)cn2)CCCN1C(=O)c1ccc(F)cc1-c1ncco1` (relative stereo) [Example 203, (4-fluoro-2-(oxazol-2-yl)phenyl)((2S*,3R*)-2-methyl-3-((5-(trifluoromethyl)pyridin-2-yl)amino)piperidin-1-yl)methanone] are 28 nM and 34 nM.
In the case of `C[C@H]1[C@H](Nc2cnc(C(F)(F)F)cn2)CCCN1C(=O)c1cccc(F)c1-c1ncccn1` (relative stereo) [Example 207, (3-fluoro-2-(pyrimidin-2-yl)phenyl)((2S*,3R*)-2-methyl-3-((5-(trifluoromethyl)pyrazin-2-yl)amino)piperidin-1-yl)methanone], the inhibition constant Ki on human orexin 1 receptor was 12 nM; at rat orexin 1 receptor it was 15 nM.
In the same order, the values of `C[C@H]1[C@H](Oc2ccc(C(F)(F)F)cn2)CCCN1C(=O)c1ncccc1-c1ncccn1` (relative stereo) [Example 210, ((2S*,3R*)-2-methyl-3-((5-(trifluoromethyl)pyridin-2-yl)oxy)piperidin-1-yl)(3-(pyrimidin-2-yl)pyridin-2-yl)methanone] are 32 nM and 25 nM.
